Assays:
CYP3A4/5 = CYP3A4/5 (Homo sapiens, UniProt P08684); assay: in vitro; details: liver microsomes, pH 7.4, probe midazolam (2 microM), 3A4_mido pIC50, human liver microsomes 0.2 mg/ml
Cytochrome P450 2C8 = biological target: T1, Cytochrome P450 2C8 (Homo sapiens, UniProt P10632); assay: Human liver microsomal cytochrome P450 cocktail inhibition assay, Protocol C; type: in vitro ADME; details: human liver microsomes 0.2 mg/ml, probe amodiaquine 2 microM
T1 construct: tissue BD Gentest; host or cells: human liver microsomes

Protein sequences, listed by entry. Tags and fused reporters are not part of them. Residues count along the entry.
UniProt P08684, 2-503: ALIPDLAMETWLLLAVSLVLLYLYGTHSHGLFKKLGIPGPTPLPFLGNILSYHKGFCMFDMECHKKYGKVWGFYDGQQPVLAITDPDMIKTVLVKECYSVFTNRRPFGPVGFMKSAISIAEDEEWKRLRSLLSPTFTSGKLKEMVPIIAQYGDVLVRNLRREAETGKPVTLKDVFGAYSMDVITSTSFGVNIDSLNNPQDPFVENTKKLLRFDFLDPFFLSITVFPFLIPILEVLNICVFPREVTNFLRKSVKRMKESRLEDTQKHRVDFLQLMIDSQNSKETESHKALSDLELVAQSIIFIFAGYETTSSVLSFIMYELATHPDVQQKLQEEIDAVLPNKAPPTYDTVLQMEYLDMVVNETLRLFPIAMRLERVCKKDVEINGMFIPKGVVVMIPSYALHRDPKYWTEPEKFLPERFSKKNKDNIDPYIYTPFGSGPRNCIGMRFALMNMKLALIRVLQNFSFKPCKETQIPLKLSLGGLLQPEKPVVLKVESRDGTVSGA
UniProt P10632, whole entry: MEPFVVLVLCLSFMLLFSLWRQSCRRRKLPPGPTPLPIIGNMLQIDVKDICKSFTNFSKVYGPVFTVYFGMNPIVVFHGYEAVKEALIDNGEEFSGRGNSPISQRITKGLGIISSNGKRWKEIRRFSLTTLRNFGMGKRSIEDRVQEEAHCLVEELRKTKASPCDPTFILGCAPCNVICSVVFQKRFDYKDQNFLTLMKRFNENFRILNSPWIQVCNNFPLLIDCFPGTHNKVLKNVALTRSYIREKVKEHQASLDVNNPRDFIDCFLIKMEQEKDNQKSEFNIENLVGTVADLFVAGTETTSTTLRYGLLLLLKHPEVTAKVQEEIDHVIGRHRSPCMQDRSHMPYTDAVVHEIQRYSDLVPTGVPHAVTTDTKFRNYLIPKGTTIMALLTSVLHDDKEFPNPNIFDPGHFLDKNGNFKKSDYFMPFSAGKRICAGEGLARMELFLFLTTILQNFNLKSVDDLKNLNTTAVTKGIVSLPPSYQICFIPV

[1] = test system: Candida parapsilosis B66126; assay: Antifungal activity in vitro (resazurin susceptibility screen), Inf. D; type: cell-based; details: Lodderomyces parapsilosis, 37 °C, 24 hours, resa time 4 hours, read-out: Inf. D pIC50 (converted)
Microsporum canis B68128 = assay: Antifungal activity in vitro (resazurin susceptibility screen), Inf. B; details: B68128, read-out: Inf. B pIC50, Microsporum canis B68128 (converted), 27 °C, 9 days, resa time 24 hours
[2] = test system: Trichophyton mentagrophytes B70554; assay: Antifungal activity in vitro (resazurin susceptibility screen), Inf. G; type: cell-based; details: 27 °C, 7 days, resa time 24 hours, read-out: Inf. G pIC50 (converted)

| SMILES | IC50 at 10 min (CYP3A4/5) | other results |
| --- | --- | --- |
| CC(=O)c1ccc(C2NCc3ccc(Cl)cc3-n3cccc32)cc1 (stereo not drawn) [drawing 101] | 10 µM | – |
| CC(=O)c1ccc(C2=NCc3c(Cl)cccc3-n3cccc32)cc1 [drawing 91] | > 10 µM | – |
| CCc1ccc(C2NCc3c(Cl)cccc3-n3cccc32)cc1 (stereo not drawn) | 6.31 µM | – |
| CC(=O)c1ccc(C2NCc3c(Cl)cccc3-n3cccc32)cc1 (stereo not drawn) [drawing 94] | 7.94 µM | IC50 (Cytochrome P450 2C8; read-out: 2C8_Amod pIC50 (converted)): 7.94 µM |
| CC(=O)c1cccc(C2NCc3c(Cl)cccc3-n3cccc32)c1 (stereo not drawn) [drawing 99] | 2.51 µM | – |
| CC(=O)c1ccc(C2NCc3c(Cl)cccc3-n3cccc32)cc1.Cl (stereo not drawn) [Compound 5, 1-[4-(7-chloro-5,6-dihydro-4H-pyrrolo[1,2-a][1,4]benzodiazepin-4-yl)phenyl]-ethanone .HCl] | – | IC50 [1]: 7.94 µM; IC50 (Microsporum canis B68128): 0.794 µM |
| CC(=O)c1cccc(C2NCc3c(Cl)cccc3-n3cccc32)c1 (stereo not drawn) [Compound 4, 1-[3-(7-chloro-5,6-dihydro-4H-pyrrolo[1,2-a][1,4]benzodiazepin-4-yl)phenyl]-ethanone] | – | IC50 [2]: 25.1 µM |
| CC(O)c1ccc(C2NCc3c(Cl)cccc3-n3cccc32)cc1 (stereo not drawn) [drawing 97] | > 10 µM | – |
| CCc1ccc(C2=NCc3c(Cl)cccc3-n3cccc32)cc1 [drawing 92] | > 10 µM | – |
| Br.CC(=O)c1ccc(C2NCc3c(Cl)cccc3-n3cccc32)cc1 (stereo not drawn) [drawing 96] | – | 2C8_Amod pIC50 (Cytochrome P450 2C8): 5.1 |

Reference: patent publication US9040523B2, “Antifungal 5,6-dihydro-4H-pyrrolo[1,2-α][1,4]-benzodiazepines and 6H-pyrrolo[1,2-α][1,4]benzodiazepines substituted with benzene derivatives” (JANSSEN PHARMACEUTICA NV, priority 2010, dated 2015)
